From publication PMC9133036, “Molecular mechanism of the wake-promoting agent TAK-925” (Nature Communications, 2022)

By UniProt entry, the sequences of proteins in these tests, tags left out.
UniProt O43614, whole entry T111A: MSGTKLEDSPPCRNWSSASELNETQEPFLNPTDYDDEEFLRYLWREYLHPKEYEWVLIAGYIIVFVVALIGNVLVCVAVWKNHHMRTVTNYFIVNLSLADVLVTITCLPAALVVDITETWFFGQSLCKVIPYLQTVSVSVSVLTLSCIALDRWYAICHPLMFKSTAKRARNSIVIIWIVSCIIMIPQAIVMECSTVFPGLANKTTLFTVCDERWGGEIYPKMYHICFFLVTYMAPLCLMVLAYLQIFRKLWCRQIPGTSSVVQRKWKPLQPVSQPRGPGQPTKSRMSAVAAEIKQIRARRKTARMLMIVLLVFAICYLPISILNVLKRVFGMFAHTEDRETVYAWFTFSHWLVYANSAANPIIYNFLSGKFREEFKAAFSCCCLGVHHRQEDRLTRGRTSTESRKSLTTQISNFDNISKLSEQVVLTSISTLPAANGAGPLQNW
UniProt O43614, whole entry N324A: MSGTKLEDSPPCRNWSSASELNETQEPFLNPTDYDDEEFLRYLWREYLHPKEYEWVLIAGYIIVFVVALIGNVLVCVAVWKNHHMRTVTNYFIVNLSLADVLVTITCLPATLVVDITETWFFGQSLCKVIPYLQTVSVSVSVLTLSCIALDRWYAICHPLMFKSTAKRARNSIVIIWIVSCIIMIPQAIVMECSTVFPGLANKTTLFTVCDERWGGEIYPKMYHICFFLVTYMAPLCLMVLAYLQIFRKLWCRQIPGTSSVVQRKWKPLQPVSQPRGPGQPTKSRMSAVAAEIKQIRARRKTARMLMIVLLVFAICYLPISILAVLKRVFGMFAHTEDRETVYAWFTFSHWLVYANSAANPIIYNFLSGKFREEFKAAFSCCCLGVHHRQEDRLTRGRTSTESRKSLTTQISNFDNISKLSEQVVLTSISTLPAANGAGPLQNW
UniProt O43614, whole entry: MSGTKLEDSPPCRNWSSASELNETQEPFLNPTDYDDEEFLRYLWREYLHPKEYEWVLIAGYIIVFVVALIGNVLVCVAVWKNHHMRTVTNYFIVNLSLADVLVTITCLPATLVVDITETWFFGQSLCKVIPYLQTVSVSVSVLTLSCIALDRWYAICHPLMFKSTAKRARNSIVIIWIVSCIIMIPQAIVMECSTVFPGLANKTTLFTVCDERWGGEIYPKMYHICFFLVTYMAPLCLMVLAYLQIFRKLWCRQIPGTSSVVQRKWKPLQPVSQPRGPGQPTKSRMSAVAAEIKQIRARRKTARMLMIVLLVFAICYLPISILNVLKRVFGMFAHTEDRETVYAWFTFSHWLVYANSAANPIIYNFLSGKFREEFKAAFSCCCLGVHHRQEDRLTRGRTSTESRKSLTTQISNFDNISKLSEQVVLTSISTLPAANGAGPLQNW

Legend:
Type in all cases: cell-based
OX2R T111A = biological target: T1, OX2R T111A (Homo sapiens, UniProt O43614, T111A); test: IP accumulation assay, OX2R T111A; conditions: pEC50 ± SEM
T1 construct: FLAG; expressed in transfected cells; host or cells: HEK293

OX2R N324A = biological target: T2, OX2R N324A (Homo sapiens, UniProt O43614, N324A); test: IP accumulation assay, OX2R N324A; conditions: pEC50 ± SEM
T2 construct: FLAG; expressed in transfected cells; host or cells: HEK293

human OX2R wild type = human OX2R wild type (Homo sapiens, UniProt O43614); test: β-arrestin PathHunter assay, OX2R WT; set-up: expressed in transfected cells; host or cells: CHO-K1 stably expressing EA β-arrestin2; conditions: β-arrestin recruitment

EC50 (human OX2R wild type) [nM] | Compound | pEC50 (OX2R T111A) | pEC50 (OX2R N324A)
– | orexin B | not saturating | not saturating
120 | COC(=O)N1CCC[C@H](NS(C)(=O)=O)[C@@H]1CO[C@H]1CC[C@@H](c2ccccc2)CC1 [TAK-925, methyl (2R,3S)−3-[(methylsulfonyl)amino]−2-{[(cis−4-phenylcyclohexyl)oxy]methyl}piperidine-1-carboxylate] | – | –
